Measured values from article PMC8235661, “Photoelectric Dye, NK-5962, as a Potential Drug for Preventing Retinal Neurons from Apoptosis: Pharmacokinetic Studies Based on Review of the Evidence” (Life, 2021).

Experiment: PAMPA (parallel artificial membrane permeability assay)
Format: in vitro ADME
Settings: reference compound at 500 μM
Procedure: In order to determine the passive membrane diffusion rates, the Corning Gentest Pre-coated PAMPA Plate System was used in the PAMPA test. […] The acceptor plate was then placed on top of the donor plate and incubated at 37 °C without agitation for 4 h. At the end of the incubation, the plates were separated and the solutions from each well of both the acceptor plate and the donor plate were transferred to 96-well plates and mixed with acetonitrile. The final concentrations of compound in both the donor wells and acceptor wells, as well as the concentrations of the initial donor solutions, were analyzed by LC-MS/MS. The permeability of the compound was calculated according to the previous report. The recovery of the test compound was more than 90%.

O=C(O)c1cc(/N=N/c2ccc(S(=O)(=O)Nc3ccccn3)cc2)ccc1O [sulfasarazine]
PAMPA permeability of reference compound: 3.4e-08 cm/s
